# Experiments:
# Chains of the proteins cited; added tags and fusions are not shown.
# UniProt P20309, whole entry: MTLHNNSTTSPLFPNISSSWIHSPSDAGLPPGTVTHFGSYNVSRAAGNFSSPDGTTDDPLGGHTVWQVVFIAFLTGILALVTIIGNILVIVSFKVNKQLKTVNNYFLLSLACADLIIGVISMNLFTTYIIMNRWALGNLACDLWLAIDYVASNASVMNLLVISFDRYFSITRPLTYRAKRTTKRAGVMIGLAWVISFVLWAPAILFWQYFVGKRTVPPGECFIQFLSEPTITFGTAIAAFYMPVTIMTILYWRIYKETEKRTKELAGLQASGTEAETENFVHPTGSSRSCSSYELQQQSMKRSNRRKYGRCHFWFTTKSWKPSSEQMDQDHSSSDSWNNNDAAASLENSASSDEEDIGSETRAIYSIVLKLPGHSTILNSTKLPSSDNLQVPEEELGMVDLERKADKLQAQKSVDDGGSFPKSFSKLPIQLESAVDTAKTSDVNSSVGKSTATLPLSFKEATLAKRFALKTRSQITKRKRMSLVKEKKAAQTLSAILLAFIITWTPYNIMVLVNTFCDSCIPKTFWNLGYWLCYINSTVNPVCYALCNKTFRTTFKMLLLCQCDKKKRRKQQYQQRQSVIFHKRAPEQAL
# UniProt P08912, whole entry: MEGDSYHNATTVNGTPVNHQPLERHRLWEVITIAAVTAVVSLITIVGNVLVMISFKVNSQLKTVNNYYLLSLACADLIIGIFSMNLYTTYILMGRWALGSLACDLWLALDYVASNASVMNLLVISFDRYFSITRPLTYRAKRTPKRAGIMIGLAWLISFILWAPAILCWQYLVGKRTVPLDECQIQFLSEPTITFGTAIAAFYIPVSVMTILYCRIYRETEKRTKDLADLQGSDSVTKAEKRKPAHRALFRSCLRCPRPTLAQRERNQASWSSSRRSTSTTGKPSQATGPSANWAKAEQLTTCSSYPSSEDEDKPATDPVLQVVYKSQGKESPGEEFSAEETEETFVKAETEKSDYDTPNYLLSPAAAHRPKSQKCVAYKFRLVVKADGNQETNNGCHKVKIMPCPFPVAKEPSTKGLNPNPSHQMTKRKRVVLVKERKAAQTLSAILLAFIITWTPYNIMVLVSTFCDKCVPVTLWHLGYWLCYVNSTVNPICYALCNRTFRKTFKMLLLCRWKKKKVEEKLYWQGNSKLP
# hM3R = molecular target: T1, hM3R (Homo sapiens, UniProt P20309); test: Radioligand competition binding, [3H]-scopolamine (N-methyl), CHO cell membranes, hM3R; conditions: mean ± SD, n = 3; membranes from CHO cells transfected with hM3R; read-out: Receptor Ki M3
# T1 construct: expressed in transfected cells; host or cells: CHO cell membranes
# hM5R = molecular target: T2, hM5R (Homo sapiens, UniProt P08912); test: Radioligand competition binding, [3H]-scopolamine (N-methyl), CHO cell membranes, hM5R; conditions: mean ± SD, n = 3; membranes from CHO cells transfected with hM5R; read-out: Receptor Ki M5
# T2 construct: expressed in transfected cells; host or cells: CHO cell membranes
# rats = conditions: literature statement, reference numbers not given; cited from earlier work
smiles,measurement,setting,value
Nc1ccccc1C(=O)N1CCC(N2CCC(Cc3ccc(S(=O)(=O)c4cccc(Cl)c4)cc3)CC2)CC1 [Compound 28],Ki,hM3R,193 ± 23 nM
same,Ki,hM5R,119 ± 20 nM
same,in vivo efficacy,rats,in vivo efficacy

# — paper PMC11995211, “Design, Synthesis, and Evaluation of a New Fluorescent Ligand for the M2 Muscarinic Acetylcholine Receptor” (ACS Medicinal Chemistry Letters, 2025)
